Assays:
[1] = molecular target: T1, TEL-fused FGFR2 V564F mutant polypeptide (Homo sapiens, UniProt P21802, V564F); conditions: mouse, in vivo
[2] = molecular target: T2, FGFR2 V564F mutant polypeptide (Homo sapiens, UniProt P21802, V564F)
[3] = molecular target: T2, FGFR2 V564F mutant polypeptide; remark: listed apart in the source
[4] = molecular target: tumor cells that express the TEL-fused FGFR2 V564F mutant polypeptide (Homo sapiens, UniProt P21802, V564F); conditions: mouse, in vivo, po
[5] = molecular target: T1, TEL-fused FGFR2 V564F mutant polypeptide; experiment: In vitro cell proliferation inhibition (WST-8), Ba/F3 strain stably expressing TEL-fused FGFR2 V564F mutant

Sequences of proteins named here, by UniProt entry; tags and fusion partners are left off. A line that says so, or that is headed by a name, gives the form on record, which may keep a tag or linker. Residues count along the entry.
UniProt P21802, with tags, fused parts or gaps V564F: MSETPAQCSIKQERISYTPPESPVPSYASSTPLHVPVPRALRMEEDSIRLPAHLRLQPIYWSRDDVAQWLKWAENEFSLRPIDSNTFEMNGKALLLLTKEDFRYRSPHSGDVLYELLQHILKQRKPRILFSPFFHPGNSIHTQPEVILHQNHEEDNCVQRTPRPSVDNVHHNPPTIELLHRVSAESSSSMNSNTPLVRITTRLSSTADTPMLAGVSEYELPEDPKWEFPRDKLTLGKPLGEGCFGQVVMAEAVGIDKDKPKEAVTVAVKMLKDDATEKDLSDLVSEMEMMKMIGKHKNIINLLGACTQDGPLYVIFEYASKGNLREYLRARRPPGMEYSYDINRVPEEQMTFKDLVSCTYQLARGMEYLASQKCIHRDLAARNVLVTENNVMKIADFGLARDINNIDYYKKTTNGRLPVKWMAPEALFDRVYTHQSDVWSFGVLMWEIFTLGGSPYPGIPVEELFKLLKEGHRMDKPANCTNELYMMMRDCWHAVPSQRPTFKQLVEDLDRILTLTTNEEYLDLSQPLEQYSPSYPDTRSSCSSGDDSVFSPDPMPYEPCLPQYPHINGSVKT
UniProt P21802, 22-821 V564F: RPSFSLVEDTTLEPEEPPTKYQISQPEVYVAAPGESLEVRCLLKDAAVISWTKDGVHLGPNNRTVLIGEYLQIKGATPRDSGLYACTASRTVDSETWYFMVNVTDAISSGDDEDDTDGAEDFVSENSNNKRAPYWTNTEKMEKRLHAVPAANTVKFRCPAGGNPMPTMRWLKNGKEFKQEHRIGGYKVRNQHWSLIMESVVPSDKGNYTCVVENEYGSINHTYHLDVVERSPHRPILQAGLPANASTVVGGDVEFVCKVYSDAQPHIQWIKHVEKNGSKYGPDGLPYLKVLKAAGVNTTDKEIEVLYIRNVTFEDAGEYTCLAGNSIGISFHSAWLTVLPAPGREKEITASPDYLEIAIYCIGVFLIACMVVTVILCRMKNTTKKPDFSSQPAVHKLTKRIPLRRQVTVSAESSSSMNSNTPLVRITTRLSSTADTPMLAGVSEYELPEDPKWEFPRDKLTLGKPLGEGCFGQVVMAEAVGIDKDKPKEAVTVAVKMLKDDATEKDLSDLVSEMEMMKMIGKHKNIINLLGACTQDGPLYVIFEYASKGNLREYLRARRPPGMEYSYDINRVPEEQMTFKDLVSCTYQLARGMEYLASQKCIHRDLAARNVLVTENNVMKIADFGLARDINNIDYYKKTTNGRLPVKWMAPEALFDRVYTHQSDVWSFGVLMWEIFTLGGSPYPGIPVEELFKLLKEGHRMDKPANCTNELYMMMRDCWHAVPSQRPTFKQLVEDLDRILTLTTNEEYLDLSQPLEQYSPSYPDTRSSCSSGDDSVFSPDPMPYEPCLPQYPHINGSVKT

inhibitory effect on phosphorylation in tumors compared to mice carrying tumor cells expressing TEL-fused wild-type FGFR2 [1]	IC50 RATIO RELATIVE TO WT FGFR2 [2]	cell proliferation-inhibiting activity compared to the strain stably expressing wild-type FGFR2 [2]	phosphorylation inhibitory effect compared to that on the wild-type FGFR2 polypeptide [3]	tumor proliferation-inhibiting activity compared to mice carrying tumor cells expressing TEL-fused wild-type FGFR2 [4]	cell proliferation-inhibiting activity compared to the strain stably expressing TEL-fused wild-type FGFR2 [5]	Compound
hardly any change	1.9	hardly any change	did not reduce much	hardly any change	hardly any change	Cc1nc2ccc(-n3ncc(C(=O)c4cc5ccccc5[nH]4)c3N)cc2[nH]1 [Compound A]
–	90	greatly weakened	–	–	greatly weakened	CCN(CC)CCCCNc1ncc2cc(-c3cc(OC)cc(OC)c3)c(NC(=O)NC(C)(C)C)nc2n1 [Compound B, PD173074, reference compound]

Source: patent US10391081B2, “FGFR gatekeeper mutant gene and drug targeting same” (CHUGAI SEIYAKU KABUSHIKI KAISHA, priority 2013, dated 2019)
